## Yeast mating assay B: variants of the scFv Ab-14

The target is the same throughout: PDVDLGDISGINAS, from the HR2 region of SARS-CoV-2 spike.

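The parent was found by panning a naive human phage display library on the peptide. These sequences belong to a second round, designed from the earlier measurements on random variants of the parent. Group labels follow the data file (Ctrl: baseline library sampled from a position-specific scoring matrix, with some repeated check sequences; Rand: our label for a block that the file lists under HC and that is probably the random mutants of the ten best first-round binders; GP: Gaussian process model; HC: hill climbing; Gen: genetic algorithm; Gibbs: Gibbs sampling; a sequence that several methods proposed may carry one label only). The scFvs were displayed on barcoded MATa yeast, the peptide on MATalpha yeast. The frequency of each diploid, read from paired DNA barcodes, reflects how well the two displayed proteins bind. A regression on co-assayed BCL2-family reference pairs converts the normalised counts of each replicate to an apparent Kd. There are six technical replicates.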

Parent: Ab-14, a human scFv built as VH, a 15-residue (Gly4Ser)3 linker, VL. Only the CDRs of the light chain vary.
VH: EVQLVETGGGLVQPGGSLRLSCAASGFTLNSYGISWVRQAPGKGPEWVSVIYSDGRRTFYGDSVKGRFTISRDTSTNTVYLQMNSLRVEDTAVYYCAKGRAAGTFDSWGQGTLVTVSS
VL: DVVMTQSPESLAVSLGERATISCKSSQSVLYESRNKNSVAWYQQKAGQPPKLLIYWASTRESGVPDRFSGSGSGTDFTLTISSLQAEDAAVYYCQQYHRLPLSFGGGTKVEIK

Substitutions are numbered in sequence along the VL above, starting at 1 (not Kabat). This list holds designs with at most six substitutions. Each Kd is an estimate from the mating assay, the geometric mean of the replicates in which the pair was seen; lower is stronger. "no signal" marks a missing value. The strain was present, yet no cells mated with the target were sequenced in any replicate, which points to weak or no binding. Of ten entries with the parent sequence, four were seen in most replicates (averages 2.2 nM to 240 nM), three in one and three in none, so single entries are noisy. Empty control strains, which show no peptide, gave a signal in 4% of pairings with all light chain designs; the median was 430 nM and 95% of these signals were weaker than 38 nM. No background was subtracted. A sequence measured in both rounds can read differently, since the two assays cover different ranges. The authors averaged sequences with at least three values out of six and counted those with two or fewer as poor binders.

| changes | group | apparent Kd | seen in |
|---|---|---|---|
| S26V Q27M W56K | Ctrl | 2.1 nM | 3 of 6 |
| S28A Q95F | Ctrl | 370 nM | 1 of 6 |
| S25Q S28E V29Q W56D | GP_HC | 4.4 nM | 6 of 6 |
| S25V N35T W56N A57G Y97M | GP_HC | no signal | 0 of 6 |
| S25V V29F S38A W56H | GP_HC | 1.1 nM | 6 of 6 |
| L30S S33Y W56S | Ctrl | no signal | 0 of 6 |
| S25I Q95S H98K L102F | Ctrl | 12 µM | 1 of 6 |
| S26G S28G V29A E32Y W56G | Rand | 1.7 nM | 6 of 6 |
| Q27K Y31F W56N | GP_HC | 27 nM | 6 of 6 |
| S28K S62A Q96W H98W | Ctrl | no signal | 0 of 6 |
| S25L V29M S38N W56E T59Q Q96S | GP_Gibbs | 550 pM | 6 of 6 |
| W56D R99S | Ctrl | 30 nM | 6 of 6 |
| E32M S33N N35D W56G E61P S103W | Ctrl | 160 nM | 6 of 6 |
| S25L V29E W56N S103E | GP_Gen | 800 pM | 6 of 6 |
| Q27E N37T W56R | Ctrl | 9.7 µM | 1 of 6 |
| S25L L30E W56N E61C | GP_Gen | 890 pM | 6 of 6 |
| Q27T S28A | Ctrl | no signal | 0 of 6 |
| S25L S26P V29E W56E S62D | GP_Gen | 410 pM | 6 of 6 |
| K24W S25I N35D W56N | GP_Gibbs | 1.6 nM | 6 of 6 |
| S25L E32N R34A N37R Q96R Y97L | Ctrl | no signal | 0 of 6 |
| S25V V29M Y31Q K36F W56H S62N | GP_Gibbs | 1.6 nM | 6 of 6 |
| S25V W56N Q96D S103M | GP_Gen | 16 nM | 6 of 6 |
| S25L V29F N37M W56N S58D S62E | GP_Gibbs | 960 pM | 6 of 6 |
| K24W S25I L30E N35D W56N | GP_Gibbs | 4.8 nM | 6 of 6 |
| V29F S58G Q95Y | Ctrl | no signal | 0 of 6 |
| W56S S103Y | Ctrl | 9.1 nM | 6 of 6 |
| L30H | Ctrl | 260 nM | 2 of 6 |
| S25L S26D S28M V29C L30V W56N | GP_Gibbs | 2.1 nM | 6 of 6 |
| Q27G R34M W56E | GP_HC | 2.3 nM | 6 of 6 |
| S25V S33W W56N | GP_Gen | 1.8 nM | 6 of 6 |
| S25Q S28E V29G W56D | GP_HC | 440 pM | 6 of 6 |
| K24V S25L S26M W56H T59L S62D | GP_HC | 26 nM | 4 of 6 |
| Q27S S33H K36E W56Q | Ctrl | 2.0 nM | 6 of 6 |
| K24M W56G T59I | Ctrl | 1.3 nM | 6 of 6 |
| S25Q V29D Y31G W56D | GP_HC | 670 pM | 6 of 6 |
| S25L L30P W56N T59Y | GP_Gen | 920 pM | 6 of 6 |
| S25L L30W W56N E61L | GP_Gen | 830 pM | 6 of 6 |
| Q27I V29G W56A | GP_HC | 1.0 nM | 6 of 6 |
| T59D | Ctrl | no signal | 0 of 6 |
| S25V S26Q V29W W56N E61M | GP_Gen | 860 pM | 6 of 6 |
| L30E S33R W56D S58D | Ctrl | 30 nM | 6 of 6 |
| S25L S33Q K36C W56N | GP_Gen | 1.2 nM | 6 of 6 |
| S25F V29W Y31M W56E E61Q | GP_HC | 380 pM | 6 of 6 |
| S25L L30T W56N | GP_Gen | 590 pM | 6 of 6 |
| V29F W56A | Ctrl | 1.2 nM | 6 of 6 |
| S25Q L30W W56D E61C | GP_HC | 95 nM | 6 of 6 |
| K36F W56G | GP_HC | 2.3 nM | 6 of 6 |
| S25L S26P V29Q W56S | GP_Gen | 1.3 nM | 6 of 6 |
| S28P R34T | Ctrl | 48 nM | 6 of 6 |
| S25L Q27C V29M L30E W56N S62E | GP_Gibbs | 820 pM | 6 of 6 |
| K24H S25L Q27D W56N S103N | GP_HC | 1.1 nM | 6 of 6 |
| K24D S25I V29W W56G | GP_HC | 720 pM | 6 of 6 |
| E61P L102P | Ctrl | no signal | 0 of 6 |
| S25L S26Q V29D W56N | GP_Gen | 420 pM | 6 of 6 |
| S25N V29C L30P Y31P | Ctrl | 130 nM | 1 of 6 |
| R34N S38A Y97G | Ctrl | no signal | 0 of 6 |
| S25I V29W W56G T59A S62V | GP_HC | 520 pM | 6 of 6 |
| S25L W56E S62A | GP_Gen | 710 pM | 6 of 6 |

The closing 8 entries, repeated:

{"changes": "K24H S25L Q27D W56N S103N", "group": "GP_HC", "apparent Kd": "1.1 nM", "seen in": "6 of 6"}
{"changes": "K24D S25I V29W W56G", "group": "GP_HC", "apparent Kd": "720 pM", "seen in": "6 of 6"}
{"changes": "E61P L102P", "group": "Ctrl", "apparent Kd": "no signal", "seen in": "0 of 6"}
{"changes": "S25L S26Q V29D W56N", "group": "GP_Gen", "apparent Kd": "420 pM", "seen in": "6 of 6"}
{"changes": "S25N V29C L30P Y31P", "group": "Ctrl", "apparent Kd": "130 nM", "seen in": "1 of 6"}
{"changes": "R34N S38A Y97G", "group": "Ctrl", "apparent Kd": "no signal", "seen in": "0 of 6"}
{"changes": "S25I V29W W56G T59A S62V", "group": "GP_HC", "apparent Kd": "520 pM", "seen in": "6 of 6"}
{"changes": "S25L W56E S62A", "group": "GP_Gen", "apparent Kd": "710 pM", "seen in": "6 of 6"}

The measurements come from Li et al. 2023 (doi:10.1038/s41467-023-39022-2) through the FLAb antibody collection.